Results taken from PubChem BioAssay AID1645857 (Buhrlage Lab, Dana-Farber Cancer Institute and Novartis …, 2021).
The list shows a part of the results, in another mix than the full data. Active and inactive are the calls of the source. Cut-off read from the data, not from the text of the source: active = inhibition above about 30%; inactive = the rest.

Sequences of proteins named here, by UniProt entry; tags and fusion partners are left off.
UniProt Q96RU2, whole entry: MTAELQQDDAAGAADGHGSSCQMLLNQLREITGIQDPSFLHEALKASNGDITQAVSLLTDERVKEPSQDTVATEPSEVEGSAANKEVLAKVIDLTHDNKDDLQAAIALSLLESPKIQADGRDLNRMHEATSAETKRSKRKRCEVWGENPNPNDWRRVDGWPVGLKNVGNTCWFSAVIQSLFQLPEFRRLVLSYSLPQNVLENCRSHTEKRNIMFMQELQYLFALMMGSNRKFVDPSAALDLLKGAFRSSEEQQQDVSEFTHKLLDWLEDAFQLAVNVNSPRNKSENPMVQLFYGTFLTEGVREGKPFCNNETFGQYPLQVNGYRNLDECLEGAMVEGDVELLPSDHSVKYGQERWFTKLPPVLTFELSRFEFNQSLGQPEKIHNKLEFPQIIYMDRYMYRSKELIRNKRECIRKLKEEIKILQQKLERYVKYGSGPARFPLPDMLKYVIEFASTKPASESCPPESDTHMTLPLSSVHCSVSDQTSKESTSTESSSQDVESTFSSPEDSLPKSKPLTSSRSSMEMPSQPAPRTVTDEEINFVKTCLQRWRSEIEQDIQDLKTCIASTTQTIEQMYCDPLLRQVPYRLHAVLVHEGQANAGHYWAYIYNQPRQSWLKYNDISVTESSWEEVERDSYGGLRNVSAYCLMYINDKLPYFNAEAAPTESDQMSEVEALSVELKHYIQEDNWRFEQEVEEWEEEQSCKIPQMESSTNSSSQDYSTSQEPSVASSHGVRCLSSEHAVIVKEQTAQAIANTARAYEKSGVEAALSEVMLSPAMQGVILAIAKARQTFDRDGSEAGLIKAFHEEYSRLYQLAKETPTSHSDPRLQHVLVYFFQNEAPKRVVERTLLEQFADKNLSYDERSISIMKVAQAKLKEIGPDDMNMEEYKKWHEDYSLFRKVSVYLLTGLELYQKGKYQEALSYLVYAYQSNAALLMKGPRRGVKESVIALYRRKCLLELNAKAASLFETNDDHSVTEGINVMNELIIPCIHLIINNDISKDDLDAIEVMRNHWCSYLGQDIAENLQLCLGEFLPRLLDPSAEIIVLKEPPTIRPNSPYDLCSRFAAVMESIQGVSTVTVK

What follows are compounds tested against Ubiquitin carboxyl-terminal hydrolase 28 (Homo sapiens) (UniProt Q96RU2) (assay: blocks human USP28 ubiquitin-rhodamine cleavage (AID 1645857)). Conditions: purified USP28, Ub-rhodamine cleavage fluorescence, 30 min; at 25 µM; stronger effect = higher value.
With `O=C(NCC1(N2CCCCC2)CCCCC1)c1ccc(F)cc1` the inhibition was inactive: -46.8%.
In the case of `CC1CN(CCc2ccccc2)CCC1=O` (stereo not drawn), the inhibition is reported as inactive: 4.8%.
In the case of `Cc1ccccc1C(=O)NCC1(N2CCOCC2)CCCCC1`, the inhibition is reported as inactive: -7.15%.
In the case of `O=C(NCC1(N2CCCCC2)CCCCC1)c1ccc2ncsc2c1`, the inhibition is reported as inactive: -9.55%.
For `Cc1cc(C(=O)NCC2(N3CCOCC3)CCCCC2)c2ccccc2n1`, the inhibition was inactive: 2%.
With `O=C(NCC1(N2CCOCC2)CCCCC1)c1ccccc1Cl` the inhibition was inactive: -15.2%.
For `N#Cc1ccc(C(=O)NCC2(N3CCCCC3)CCCCC2)cc1`, the inhibition was inactive: -12.1%.
For `CN(C)c1ccc(C(=O)NCC2(N3CCCCC3)CCCCC2)cc1`, the inhibition was inactive: -1.2%.
